Key:
Experiment in all cases: In vivo combination study, syngeneic mouse tumor isograft model
[1] = system: CT26 Mouse syngeneic colon tumor model
Protocol: (§1) To investigate in vivo antitumor activity of Compound 1 in combination with other agents, tests using Cell Derived Xenograft (CDX), Patient Derived Xenograft (PDX) and Syngeneic mouse tumor isograft model were conducted. Cells or Patient Derived Tumors were inoculated by one method of the following two methods (Method A and B) as shown Table 7.
(§2) Method A; Cells were maintained in either immune deficient nude mice or immune competent mice by subcutaneous inoculation of tumor cells at various concentrations into respected mice. Method B: Patient Derived Tumor s were maintained in nude mice by subcutaneous inoculation of tumor pieces (approx. 2×2×2 mm) into nude mice. Mice with tumor size of approximately 50 mm^3 (e.g., 40-75 mm^3) for syngeneic mouse studies or 200 mm^3 (e.g., 110-270 mm^3) for xenograft studies were randomly assigned to dose groups on the day (Day 0) before start date of dosing.
(§3) Compound 1 (crystalline form I) was suspended in 0.5 w/v % methylcellulose and administered orally to mice. Antibodies which administered in the experiment were described in Table 8.
(§4) Tumor size was measured by caliper and tumor volume was estimated using the equation V=(LW^2)/2, where L and W are tumor length and width, respectively and reported in cubic millimeters.
(§5) These values were compared across treatment groups to assess whether the differences in the trends over time were statistically significant. To compare pairs of treatment groups, the following mixed-effects linear regression model was fit to the data using the maximum likelihood method:
(§6) For synergy analyses, the observed differences in the log tumor values were used to calculate AUC values for each animal. In instances when an animal in a treatment group was removed from the study, the last observed tumor value was carried forward through all subsequent time points. The AUC for the control, or vehicle, group was calculated using the predicted values from the pairwise models described above. We defined a measure of synergy as follows:
(§7) where Ak and Bk are the k^th animal in the individual treatment groups and ABk is the k^th animal in combination treatment group. AUCcd is the model-predicted AUC for the control group and was treated as a constant with no variability. The standard error of the synergy score was calculated as the square root of the sum of squared standard errors across groups A, B, and AB. The degrees of freedom were estimated using the Welch-Satterthwaite equation. A hypothesis test was performed to determine if the synergy score differed from 0. P values were calculated by dividing the synergy score by its standard error and tested against a t-distribution (two-tailed) with the above-calculated degrees of freedom.
(§8) The effect was classified into four different categories. It was considered synergistic if the synergy score was less than 0 and additive if the synergy score wasn't statistically different from 0. If the synergy score was greater than zero, but the mean AUC for the combination was lower than the lowest mean AUC among the two single agent treatments, then the combination was sub-additive. If the synergy score was greater than zero, and the mean AUC for the combination was greater than the mean AUC for at least one of the single agent treatments, then the combination was antagonistic.

B16F10 (Melanoma) = system: B16F10 (Melanoma)
Protocol: as §1, §2, §3, §4, §5, §6, §7, §8

A20 (Lymphoma) = system: A20 (Lymphoma)
Protocol: as §1, §2, §3, §4, §5, §6, §7, §8

Which “Result (combination with Compound 1, tumor growth)” value (“Result” below) ([1]; CT26 (64 mm^3) FIG. 8, Compound 1 60 mg/kg orally QD × 3/wk day 0,1,2,7,8,9,14,15,16, NKTR-214 0.8 mg/kg intravenously Q9D Day 0,9,18) does the source give for “NKTR-214: listed among checkpoint inhibitors; given intravenously at 0.8 mg/kg” here?
The value was “Additive”.

What about the CR per group ([1]; note to Table 9, by note order: NKTR-214 study in CT26 (64 mm^3)) of the same substance?
The CR per group was 0.

And the “Result” value (B16F10 (Melanoma); B16F10 (67 mm^3), Compound 1 60 mg/kg orally QD × 3/wk day 0,1,2,7,8,9, NKTR-214 0.8 mg/kg intravenously Q9D Day 0,9,18)?
Its value is “Additive”.

And the CR per group (B16F10 (Melanoma); note to Table 9, by note order: NKTR-214 study in B16F10 (67 mm^3))?
Its CR per group is 0.

And the “Result” value (A20 (Lymphoma); A20 (61 mm^3), Compound 1 60 mg/kg orally QD × 3/wk day 0,1,2,7,8,9,14,15,16, NKTR-214 0.8 mg/kg intravenously Q9D Day 0,9,18)?
The value was “Additive”.

What about the CR per group (A20 (Lymphoma); note to Table 9, by note order: NKTR-214 study in A20 (61 mm^3)) of the same substance?
The CR per group was 3.

Source: US20220323443A1, “COMBINATION THERAPY FOR CANCER TREATMENT” (TAKEDA PHARMACEUTICAL COMPANY LIMITED, priority 2019, published 2022)
